Data as given in PubChem BioAssay AID720582 (The Scripps Research Institute Molecular Screening Center, 2013).
The list shows a part of the results, in another mix than the full data. Calls of active or inactive are those of the source.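 The calls were made as follows: active = inhibition above a per-campaign cutoff equal to the mean of compounds falling between control-based bounds plus 3 SD (cut at about 20% in these data); inactive = the rest.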

The chains behind the UniProt entries cited, without tags or fusion partners. Residues count along the entry.
UniProt O14672, 214-748 limits assumed: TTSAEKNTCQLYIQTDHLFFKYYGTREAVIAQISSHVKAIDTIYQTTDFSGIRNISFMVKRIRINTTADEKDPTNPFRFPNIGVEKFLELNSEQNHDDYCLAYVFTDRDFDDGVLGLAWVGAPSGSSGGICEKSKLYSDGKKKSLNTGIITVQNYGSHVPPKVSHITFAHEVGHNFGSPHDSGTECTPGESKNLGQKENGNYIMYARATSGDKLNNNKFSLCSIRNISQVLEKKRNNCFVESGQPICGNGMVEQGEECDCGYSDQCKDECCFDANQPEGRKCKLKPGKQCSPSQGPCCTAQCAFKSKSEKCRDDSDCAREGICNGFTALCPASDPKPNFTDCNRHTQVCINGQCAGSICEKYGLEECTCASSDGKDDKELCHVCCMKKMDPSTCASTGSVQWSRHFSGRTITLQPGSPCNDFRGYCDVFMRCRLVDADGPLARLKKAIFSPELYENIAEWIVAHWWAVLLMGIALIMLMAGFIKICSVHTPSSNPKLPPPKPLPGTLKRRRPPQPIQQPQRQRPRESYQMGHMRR

Target: Disintegrin and metalloproteinase domain-containing protein 10 (Homo sapiens) (UniProt O14672)
Test: blockers of ADAM10 peptide cleavage – biochemical, QFRET, HTS, primary screen (AID 720582);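 also: 0% = DMSO wells while the 100% control is not disclosed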
Settings: recombinant ADAM10, EDANS/DABCYL FRET peptide cleavage, 3 h; at 7 µM; hits give high values

SMILES	inhibition
COc1ccc(NC2CCN(CCc3ccccc3)CC2)c(OC)c1	inactive: 3.54%
Cc1ccccc1NC1(C#N)CCN(Cc2ccccc2)CC1	inactive: -1.16%
COc1ccc(C(c2nnnn2C2CCCCC2)N2CCC(n3c(=O)[nH]c4ccccc43)CC2)cc1 (stereo not given)	inactive: 2.94%
CCN1CCC(Nc2cccc(F)c2)CC1	inactive: 4.16%
CC(C)(C)n1nnnc1C(c1ccnc2ccccc12)N1CCC(n2c(=O)[nH]c3ccccc32)CC1 (stereo not given)	inactive: -2.31%
O=C(NCC1(N2CCCCC2)CCCCC1)c1ccco1	inactive: -5.86%
CN(C)c1ccc(C(=O)NCC2(N3CCCCC3)CCCCC2)cc1	inactive: -5%
Cn1c(=O)[nH]cc(N(CCCl)CCCl)c1=O	inactive: -2.71%
COc1cccc(C(c2nnnn2C2CCCCC2)N2CCC(n3c(=O)[nH]c4ccccc43)CC2)c1OC (stereo not given)	inactive: 19.3%
CC(=O)N(c1ccccc1)C1CCNCC1	inactive: -8.3%
CCC(c1nnnn1C1CCCCC1)N1CCC(n2c(=O)[nH]c3ccccc32)CC1 (stereo not given)	inactive: 5.18%
COc1cc(OC)cc(C(=O)NCC2(N3CCCCC3)CCCCC2)c1	inactive: -9.22%
O=c1[nH]c2ccccc2n1C1CCN(C(c2ccnc3ccccc23)c2nnnn2C2CCCCC2)CC1 (stereo not given)	inactive: 5.85%
Cc1ccc(C(=O)NCC2(N3CCCCC3)CCCCC2)o1	inactive: -4.13%
Fc1ccccc1NC1CCN(Cc2ccccc2)CC1	inactive: 8%
Cc1ccc(NC2(C#N)CCN(Cc3ccccc3)CC2)cc1	inactive: 0.65%
COc1cccc(C(=O)N(c2cc(C)cc(C)c2)C2CCN(C(=O)OC(C)(C)C)CC2)c1	inactive: 3.69%
COc1cc(OC)cc(C(=O)NCC2(N3CCOCC3)CCCCC2)c1	inactive: -2.34%
COc1cccc(C(c2nnnn2C2CCCC2)N2CCC(n3c(=O)[nH]c4ccccc43)CC2)c1OC (stereo not given)	inactive: 6.72%
CCC(CO)(C(=O)OC1CN2CCC1CC2)c1ccccc1 (stereo not given)	inactive: 3.13%
CN1CCC(Nc2ccc(Cl)cc2)CC1	inactive: -1.79%
CCOc1ncccc1C(=O)NCC1(N2CCOCC2)CCCCC1	inactive: -0.19%
CN1CCC(Nc2ccc(F)c(Cl)c2)CC1	inactive: -6.25%
CC(C)(C)OC(=O)N1CCC(Nc2ccccc2)CC1	inactive: -6.46%
NN(c1ccccc1)C1CCN(CCc2ccccc2)CC1	inactive: -2.67%

SMILES	inhibition
O=C(O)C1(Nc2ccccc2)CCN(Cc2ccccc2)CC1	inactive: -7.71%
O=c1[nH]c2ccccc2n1C1CCN(C(c2cc3ccccc3o2)c2nnnn2C2CCCC2)CC1 (stereo not given)	inactive: 7.36%
CCCOc1ccc(C(=O)NCC2(N(C)C)CCCCC2)cc1	inactive: 2.39%
CCOC(=O)N1CCC(Nc2ccc(C)cc2)CC1	inactive: 0.37%
COc1cccc(C(c2nnnn2C(C)(C)C)N2CCC(n3c(=O)[nH]c4ccccc43)CC2)c1OC (stereo not given)	inactive: 5.07%
N/C(=N\O)c1c(N)no[n+]1[O-]	inactive: 1.3%
O=C(OC1CN2CCC1CC2)C1c2ccccc2C=Cc2ccccc21 (stereo not given)	inactive: -4.08%
O=c1[nH]c2ccccc2n1C1CCN(C(c2cccs2)c2nnnn2C2CCCC2)CC1 (stereo not given)	inactive: 11.8%
CCCCn1nnnc1C(c1cccc(OC)c1OC)N1CCC(n2c(=O)[nH]c3ccccc32)CC1 (stereo not given)	inactive: 10%
CCCCn1nnnc1C(c1ccccc1)N1CCC(n2c(=O)[nH]c3ccccc32)CC1 (stereo not given)	inactive: 5.84%
COc1cc(C(=O)NCC2(N3CCOCC3)CCCCC2)cc(OC)c1C	inactive: -24.1%
O=C(NCC1(N2CCOCC2)CCCCC1)c1cc(Br)ccc1Cl	inactive: -15.6%
O=c1[nH]c2ccccc2n1C1CCN(C(c2cccs2)c2nnnn2C2CCCCC2)CC1 (stereo not given)	inactive: -5.2%
NC(=O)C1(Nc2ccccc2)CCN(Cc2ccccc2)CC1	inactive: 0.45%
COc1ccc(C(=O)NCC2(N3CCOCC3)CCCCC2)cc1OC	inactive: -2.55%
O=c1[nH]c2ccccc2n1C1CCN(C(c2ccnc3ccccc23)c2nnnn2C2CCCC2)CC1 (stereo not given)	inactive: 12.6%
CN(C)C1(CNC(=O)c2cccc(C#N)c2)CCCCC1	inactive: -5.27%
C/C(N)=N\P(=O)(Oc1ccccc1)Oc1ccccc1	inactive: 8.66%
c1ccc(CN2CCC(Nc3ccccc3)CC2)cc1	inactive: 0.29%
O=c1[nH]c2ccccc2n1C1CCN(C(c2ccccc2)c2nnnn2C2CCCC2)CC1 (stereo not given)	inactive: -12.7%
CCCN1CCC(Nc2cc(OC)cc(OC)c2)CC1	inactive: -4.08%
Cc1cc(N(CCCl)CCCl)ccc1C=O	inactive: -12.7%
CC(C)(C)n1nnnc1C(c1cccc2ccccc12)N1CCC(n2c(=O)[nH]c3ccccc32)CC1 (stereo not given)	inactive: 14.7%
N#Cc1ccc(C(=O)NCC2(N3CCCCC3)CCCCC2)cc1	inactive: -1.23%
CC(C)(C)OC(=O)N1CCC(N(C(=O)c2ccccc2)c2ccc(Cl)cc2)CC1	inactive: 3.46%
